Data reported in patent US7361665B2, “Inhibitors of c-Jun N-terminal kinases (JNK) and other protein kinases” (Vertex Pharmaceuticals Incorporated, priority 2002, dated 2008).

Chains of the proteins cited; added tags and fusions are not shown. Residues count along the entry.
UniProt P53779, 40-402 limits assumed: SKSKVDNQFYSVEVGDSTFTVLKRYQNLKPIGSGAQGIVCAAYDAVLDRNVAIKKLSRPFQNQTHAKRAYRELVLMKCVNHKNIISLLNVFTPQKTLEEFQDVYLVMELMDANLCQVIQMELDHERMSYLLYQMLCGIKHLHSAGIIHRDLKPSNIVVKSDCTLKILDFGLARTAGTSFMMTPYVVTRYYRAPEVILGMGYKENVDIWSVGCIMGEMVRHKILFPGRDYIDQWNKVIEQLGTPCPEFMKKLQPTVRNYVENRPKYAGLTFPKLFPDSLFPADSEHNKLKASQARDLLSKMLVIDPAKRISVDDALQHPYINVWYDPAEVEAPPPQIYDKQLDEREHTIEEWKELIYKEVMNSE

What follows are compounds tested against JNK3 (Homo sapiens, UniProt P53779) (assay: JNK inhibition assay (spectrophotometric coupled-enzyme assay)). Conditions: read-out: JNK3 Activity (Ki rating); activated JNK3 10 nM, 10 μM ATP, 30° C.
Assay type: biochemical
Source text: A BLAST search of the EST database using the published JNK3α1 cDNA as a query identified an EST clone (#632588) that contained the entire coding sequence for human JNK3α1. Polymerase chain reactions (PCR) using pfu polymerase (Strategene) were used to introduce restriction sites into the cDNA for cloning into the pET-15B expression vector at the NcoI and BamHI sites. The protein was expressed in E. coli. Due to the poor solubility of the expressed full-length protein (Met 1-Gln 422), an N-terminally truncated protein starting at Ser residue at position 40 (Ser 40) was produced. This truncation corresponds to Ser 2 of JNK1 and JNK2 proteins, and is preceded by a methionine (initiation) and a glycine residue. The glycine residue was added in order to introduce an NcoI site for cloning into the expression vector. In addition, systematic C-terminal truncations were performed by PCR to identify a construct that give rise to diffraction-quality crystals. One such construct encodes amino acid residues Ser40-Glu402 of JNK3α1 and is preceded by Met and Gly residues.
Five mg of JNK3 was diluted to 0.5 mg/ml in 50 mM HEPES buffer, pH 7.5, containing 100 mM NaCl, 5 mM DTT, 20 mM MgCl2 and 1 mM ATP. GST-MKK7(DD) was added at a molar ratio of 1:2.5 GST-MKK7:JNK3. After incubation for 30 minutes at 25° C., the reaction mixture was concentrated 5-fold by ultrafiltration in a Centriprep-30 (Amicon, Beverly, Mass.), diluted to 10 ml and an additional 1 mM ATP added. This procedure was repeated three times to remove ADP and replenish ATP. The final addition of ATP was 5 mM and the mixture incubated overnight at 4° C.
The activated JNK3/GST-MKK7(DD) reaction mixture was exchanged into 50 mM HEPES buffer, pH 7.5, containing 5 mM DTT and 5% glycerol (w/v) by dialysis or ultrafiltration. The reaction mixture was adjusted to 1.1 M potassium phosphate, pH 7.5, and purified by hydrophobic interaction chromatography (at 25° C.) using a Rainin Hydropore column. […] Activated JNK3 (i.e. doubly phosphorylated JNK3) was stored at −70° C. at 0.25-1 mg/ml.
Compounds were assayed for the inhibition of JNK3 by a spectrophotometric coupled-enzyme assay. In this assay, a fixed concentration of activated JNK3 (10 nM) was incubated with various concentrations of a potential inhibitor dissolved in DMSO for 10 minutes at 30° C. in a buffer containing 0.1 M HEPES buffer, pH 7.5, containing 10 mM MgCl2, 2.5 mM phosphoenolpyruvate, 200 μM NADH, 150 μg/mL pyruvate kinase, 50 μg/mL lactate dehydrogenase, and 200 μM EGF receptor peptide. The EGF receptor peptide has the sequence […] (SEQ ID NO: 3), and is a phosphoryl acceptor in the JNK3-catalyzed kinase reaction. The reaction was initiated by the addition of 10 μM ATP and the assay plate is inserted into the spectrophotometer's assay plate compartment that was maintained at 30° C. The decrease of absorbance at 340 nm was monitored as a function of time. The rate data as a function of inhibitor concentration was fitted to competitive inhibition kinetic model to determine the Ki.
The compound numbers correspond to the compound numbers in Tables 1-3.

Structure (SMILES) | Ki [µM]
Clc1cccc(Cl)c1Cc1ncc(-c2ccnc(NC3CCCCC3)n2)[nH]1 | < 0.1
Cc1nc(-c2cccs2)sc1-c1ccnc(Nc2ccc(F)cc2)n1 | 0.1 to 1
Fc1ccc(Nc2nccc(-c3cnc(Cc4c(Cl)cccc4Cl)[nH]3)n2)cc1 | 0.1 to 1
COCn1cc(-c2ccnc(Nc3cccc(OC)c3)n2)nc1-c1ccccc1 | > 1
Clc1ccc(Nc2nccc(-c3cnc(C4CCCCC4)o3)n2)cc1 | > 1
